# Results published in PubChem BioAssay (Tox21).
# The chains behind the UniProt entries cited, without tags or fusion partners. Where a name states a change or a piece, a line headed by the entry shows the natural chain unless it says otherwise.
# UniProt P04150: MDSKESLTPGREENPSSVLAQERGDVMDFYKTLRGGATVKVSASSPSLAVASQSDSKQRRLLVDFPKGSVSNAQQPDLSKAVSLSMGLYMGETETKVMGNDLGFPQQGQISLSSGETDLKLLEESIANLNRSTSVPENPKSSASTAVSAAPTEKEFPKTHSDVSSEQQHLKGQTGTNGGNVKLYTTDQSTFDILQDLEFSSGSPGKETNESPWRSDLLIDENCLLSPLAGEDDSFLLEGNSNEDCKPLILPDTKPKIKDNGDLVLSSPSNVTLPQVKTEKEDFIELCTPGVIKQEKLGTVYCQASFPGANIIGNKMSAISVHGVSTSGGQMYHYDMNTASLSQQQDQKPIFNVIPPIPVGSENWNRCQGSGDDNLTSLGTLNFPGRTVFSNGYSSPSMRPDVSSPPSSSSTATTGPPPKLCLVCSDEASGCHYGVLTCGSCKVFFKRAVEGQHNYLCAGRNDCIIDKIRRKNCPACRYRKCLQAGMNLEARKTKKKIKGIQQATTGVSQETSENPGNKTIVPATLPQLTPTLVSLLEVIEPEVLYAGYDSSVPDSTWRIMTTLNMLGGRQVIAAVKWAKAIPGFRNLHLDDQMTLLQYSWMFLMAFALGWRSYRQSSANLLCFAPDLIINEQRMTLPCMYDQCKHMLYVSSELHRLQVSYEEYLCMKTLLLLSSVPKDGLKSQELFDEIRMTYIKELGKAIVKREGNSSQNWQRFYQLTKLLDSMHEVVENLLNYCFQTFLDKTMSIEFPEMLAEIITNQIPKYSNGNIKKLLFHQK
# UniProt P10275: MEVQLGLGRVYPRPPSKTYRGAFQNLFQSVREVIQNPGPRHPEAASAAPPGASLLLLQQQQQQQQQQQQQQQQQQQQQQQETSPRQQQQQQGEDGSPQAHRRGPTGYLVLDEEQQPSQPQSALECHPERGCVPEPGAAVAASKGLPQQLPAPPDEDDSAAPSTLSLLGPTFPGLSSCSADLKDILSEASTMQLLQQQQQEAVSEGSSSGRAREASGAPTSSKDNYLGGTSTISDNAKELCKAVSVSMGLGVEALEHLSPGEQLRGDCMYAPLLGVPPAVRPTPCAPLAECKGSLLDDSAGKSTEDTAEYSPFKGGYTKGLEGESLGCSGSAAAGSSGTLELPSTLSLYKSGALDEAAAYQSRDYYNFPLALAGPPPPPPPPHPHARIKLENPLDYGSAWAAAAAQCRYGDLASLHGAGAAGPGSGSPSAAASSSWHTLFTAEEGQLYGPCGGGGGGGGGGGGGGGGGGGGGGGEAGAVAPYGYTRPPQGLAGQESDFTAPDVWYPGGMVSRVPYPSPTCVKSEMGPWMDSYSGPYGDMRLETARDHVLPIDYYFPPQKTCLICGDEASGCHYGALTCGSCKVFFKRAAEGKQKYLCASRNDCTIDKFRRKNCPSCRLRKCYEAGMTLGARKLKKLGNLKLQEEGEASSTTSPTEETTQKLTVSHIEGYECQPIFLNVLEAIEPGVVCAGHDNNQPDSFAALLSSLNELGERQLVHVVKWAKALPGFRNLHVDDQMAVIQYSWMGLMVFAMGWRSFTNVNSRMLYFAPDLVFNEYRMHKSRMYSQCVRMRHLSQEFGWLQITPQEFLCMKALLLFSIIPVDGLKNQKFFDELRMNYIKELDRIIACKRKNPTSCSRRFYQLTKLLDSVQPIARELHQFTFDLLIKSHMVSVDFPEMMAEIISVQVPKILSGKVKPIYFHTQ
# UniProt P03372, whole entry, looked up: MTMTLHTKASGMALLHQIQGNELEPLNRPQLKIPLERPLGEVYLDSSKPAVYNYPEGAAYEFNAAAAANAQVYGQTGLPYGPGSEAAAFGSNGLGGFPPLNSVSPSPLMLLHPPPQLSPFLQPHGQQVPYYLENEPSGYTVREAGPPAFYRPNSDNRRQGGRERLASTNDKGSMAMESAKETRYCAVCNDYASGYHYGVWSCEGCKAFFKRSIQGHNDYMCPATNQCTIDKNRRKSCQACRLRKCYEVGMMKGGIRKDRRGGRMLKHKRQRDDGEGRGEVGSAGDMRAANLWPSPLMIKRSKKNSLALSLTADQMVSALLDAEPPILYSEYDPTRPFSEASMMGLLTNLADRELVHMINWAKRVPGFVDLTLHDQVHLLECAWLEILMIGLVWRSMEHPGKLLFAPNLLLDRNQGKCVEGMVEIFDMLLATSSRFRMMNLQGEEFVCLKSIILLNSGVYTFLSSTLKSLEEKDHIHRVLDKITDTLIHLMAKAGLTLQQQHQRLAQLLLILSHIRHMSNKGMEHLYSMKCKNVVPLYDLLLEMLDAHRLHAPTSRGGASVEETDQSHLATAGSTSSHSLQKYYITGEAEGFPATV
# Several values for one entry are separate records, joined by “and”; a condition that tells them apart may be missing. Equal entries are not always repeated. The list shows a part of the results, in another mix than the full data. Activity calls are given as the source filed them. Unless noted, calls come from the whole dose curve; as a rule, active = well fitted curve in the direction sought with a large enough effect in the repeat runs; inconclusive = weak or mixed curves; inactive = no such curve, though single readings can be large; an effect the other way counts as inactive or inconclusive.
# Tests used:
# [1] = qHTS assay to test for compound auto fluorescence at 590 nm (red) in HEK293 cell free culture (AID 720683); conditions: cell-free medium autofluorescence, Ex540/Em590 red; at 91.3 µM (top of the series) unless noted
# In short: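 Cell-free wells of DMEM with 10% FBS received compound, and intrinsic fluorescence was read at excitation/emission 540/590 nm. Values expressed as equivalence to Rose Bengal sodium.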
# [2] = qHTS assay to test for compound auto fluorescence at 590 nm (red) in HepG2 cell free culture (AID 720684); conditions: cell-free medium autofluorescence, red 540/590 nm; at 91.3 µM (top of the series) unless noted
# [3] = qHTS assay to test for compound auto fluorescence at 460 nm (blue) in HepG2 cell free culture (AID 720685); conditions: Cell-free culture medium, blue autofluorescence 405/460 nm; at 91.3 µM (top of the series) unless noted
# In short: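 Compound (23 nL) or DMSO pinned into cell-free MEM with 10% FBS; blue fluorescence read at 405/460 nm excitation/emission, expressed as auto-fluorescence equivalency to triamterene.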
# [4] = qHTS assay to test for compound auto fluorescence at 535 nm (green) in HepG2 cell free culture (AID 720686); conditions: Cell-free medium, green autofluorescence 485/535 nm; at 91.3 µM (top of the series) unless noted
# [5] = qHTS assay to test for compound auto fluorescence at 460 nm (blue) in HepG2 cells (AID 720687); conditions: autofluorescence 405/460 nm, 1 h; at 91.3 µM (top of the series) unless noted
# In short: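 HepG2 cells in MEM with 10% FBS, attached overnight at 37 C, were exposed to compound or DMSO for 1 hr at 37 C, 5% CO2. Blue fluorescence was read at 405/460 nm, with triamterene as reference fluorophore.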
# [6] = target: Glucocorticoid receptor (Homo sapiens) (UniProt P04150); test: qHTS assay to identify small molecule agonists of the glucocorticoid receptor (GR) signaling pathway (AID 720691; active = well fitted activation curve with a large enough effect in the signal ratio in the repeat runs, not every such curve was filed as active; inconclusive = weak or mixed curves, or effect the other way; inactive = no such curve, though single readings can be large or run the other way; the % refers to the signal ratio); conditions: GR-bla HeLa, beta-lactamase reporter ratio, 18 h; at 62.4 µM (top of the series) unless noted
# [7] = target: Glucocorticoid receptor (Homo sapiens) (UniProt P04150); test: qHTS assay to identify small molecule antagonists of the glucocorticoid receptor (GR) signaling pathway (AID 720692; active = well fitted inhibition curve with a large enough effect in the signal ratio in the repeat runs, not every such curve was filed as active; inconclusive = weak or mixed curves, or effect the other way; inactive = no such curve, though single readings can be large or run the other way; the % refers to the signal ratio); conditions: GR-bla HeLa, beta-lactamase FRET ratio, dexamethasone-stimulated, 18 h; at 58.5 µM (top of the series) unless noted
# [8] = qHTS assay for identifying genotoxic compounds that show differential cytotoxicity against isogenic chicken DT40 cell lines with known DNA damage response pathways - Rad54/Ku70 mutant cell line (AID 743015); note: nearly all actives have a fitted effect of over 60% in size; note: potency is the fitted concentration of half-maximal effect
# [9] = target: Androgen receptor (Homo sapiens) (UniProt P10275); test: qHTS assay to identify small molecule antagonists of the androgen receptor (AR) signaling pathway (AID 743035; active = well fitted inhibition curve with a large enough effect in the signal ratio in the repeat runs, not every such curve was filed as active; inconclusive = weak or mixed curves, or effect the other way; inactive = no such curve, though single readings can be large or run the other way; the % refers to the signal ratio; note: potency is the fitted concentration of half-maximal effect)
# [10] = target: Androgen receptor (Homo sapiens) (UniProt P10275); test: qHTS assay to identify small molecule agonists of the androgen receptor (AR) signaling pathway (AID 743036; active = well fitted activation curve with a large enough effect in the signal ratio in the repeat runs, with a control signal flat, not every such curve was filed as active; inconclusive = weak or mixed curves, or effect the other way; inactive = no such curve, though single readings can be large or run the other way; the % refers to the signal ratio); conditions: HEK293 AR-UAS-bla GripTite, beta-lactamase FRET ratio, 16 h; at 62.4 µM (top of the series)
# [11] = target: Androgen receptor (Homo sapiens) (UniProt P10275); test: qHTS assay to identify small molecule agonists of the androgen receptor (AR) signaling pathway using the MDA cell line (AID 743040; note: nearly all actives have a fitted effect of over 20% in size); conditions: MDA-kb2 AR-luc cells, MMTV luciferase, 16 h, stronger effect = higher value
# [12] = target: Androgen receptor (Homo sapiens) (UniProt P10275); test: qHTS assay to identify small molecule antagonists of the androgen receptor (AR) signaling pathway using the MDA cell line (AID 743042; note: nearly all actives have a fitted effect of over 55% in size; note: potency is the fitted concentration of half-maximal effect)
# [13] = qHTS assay to identify small molecule antagonists of the thyroid receptor (TR) signaling pathway (AID 743065); note: nearly all actives have a fitted effect of over 55% in size; note: potency is the fitted concentration of half-maximal effect
# In short: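 GH3.TRE-Luc rat pituitary cells (two TREs driving luciferase) were dosed with compound, then stimulated with 1 nM T3 (final) for 23.5 h at 37 C. ONE-Glo luminescence was the read-out, with CellTiter-Fluor fluorescence as the cytotoxicity counter-screen.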
# [14] = test system: thyroid hormone receptor (rat, GH3 cells); test: qHTS assay to identify small molecule agonists of the thyroid receptor (TR) signaling pathway (AID 743066; calls by dose curve); conditions: GH3.TRE-Luc cells, TR agonist luciferase, 24 h; at 83.9 µM (top of the series) unless noted
# [15] = target: Estrogen receptor (Homo sapiens) (UniProt P03372); test: qHTS assay to identify small molecule antagonists of the estrogen receptor alpha (ER-alpha) signaling pathway (AID 743069; active = well fitted curve in the direction sought with a large enough effect in the signal ratio in the repeat runs, not every such curve was filed as active; inconclusive = weak or mixed curves, or effect the other way; inactive = no such curve, though single readings can be large or run the other way; the % refers to the signal ratio; note: potency is the fitted concentration of half-maximal effect)
# In short: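 Reporter cells (ER-alpha-bla, HEK293 background) are conditioned overnight in stripped-serum medium (2% charcoal-stripped FBS). Compound and 17beta-estradiol exposure runs 18 hr at 37C, 5% CO2.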
# [16] = target: Estrogen receptor (Homo sapiens) (UniProt P03372); test: qHTS assay to identify small molecule agonists of the estrogen receptor alpha (ER-alpha) signaling pathway (AID 743075; calls by dose curve;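 note: HEK293 GripTite cells with ER-alpha and UAS-driven beta-lactamase reporter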; note: potency is the fitted concentration of half-maximal effect)
# [17] = target: Estrogen receptor (Homo sapiens) (UniProt P03372); test: qHTS assay to identify small molecule agonists of the estrogen receptor alpha (ER-alpha) signaling pathway using the BG1 cell line (AID 743079); note: nearly all actives have a fitted effect of over 20% in size; note: potency is the fitted concentration of half-maximal effect
# [18] = qHTS assay to identify small molecule antagonists of the estrogen receptor alpha (ER-alpha) signaling pathway using the BG1 cell line (AID 743080; calls by dose curve;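 note: BG1 cells stimulated with 17beta-estradiol alongside compound; nearly all actives have a fitted effect of over 25% in size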); conditions: BG1Luc4E2 ERE-luciferase antagonist mode, luminescence; at 70.3 µM (top of the series) unless noted
# In short: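 Endogenous full-length ER-alpha in BG1-Luc-4E2 cells drives a stably integrated 4×ERE luciferase gene; compounds were tested against 17beta-estradiol over 21.5 h, with luminescence and multiplexed viability fluorescence recorded.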
# [19] = qHTS assay to identify small molecule antagonists of the estrogen receptor alpha (ER-alpha) signaling pathway using the BG1 cell line - cell viability counter screen (AID 743081);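 note: compound given together with 17beta-estradiol as the ER stimulus; nearly all actives have a fitted effect of over 45% in size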
# [20] = qHTS assay to identify small molecule antagonists of the estrogen receptor alpha (ER-alpha) signaling pathway - cell viability counter screen (AID 743074; calls by dose curve;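 note: HEK293 cells carrying ER-alpha-UAS-bla reporter stimulated with 17beta-estradiol; nearly all actives have a fitted effect of over 45% in size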; note: potency is the fitted concentration of half-maximal effect)
# % is set by controls: 0 for no effect and ±100 for the full control effect.
structure (smiles),measurement,setting,value
O=[P+](Oc1ccccc1)Oc1ccccc1,"fluorescence, % of fluorescent control",[1],inactive: -0.282%
same,"fluorescence, % of Rose Bengal",[2],inactive: 0.25%
same,"fluorescence, % of fluorescent control",[3],inactive: 0.0008%
same,"fluorescence, % of fluorescein control",[4],inactive: -0.0217%
same,"fluorescence, % of fluorescent control",[5],inactive: -0.114%
same,activation,[6],inactive: 0.3%
same,"activity change, negative = inhibition",[7],inactive: 0.534%
same,Potency,[8],inactive
same,Potency,[9],inactive
same,activation,[10],inactive: -8.87%
same,activity change,[11]; at 70.3 µM (top of the series),inactive: 1.08%
same,Potency,[12],inactive
same,Potency,[13],inactive
same,activation,[14],inactive: -0.242%
same,Potency,[15],inactive
same,Potency,[16],inactive
same,Potency,[17],active: 34200 nM
same,"activity change, negative = inhibition",[18],inactive: 0.765%
same,Potency,[19],inactive
O=C1C2CC=CCC2C(=O)N1SC(Cl)(Cl)C(Cl)Cl (configuration not stated),"fluorescence, % of fluorescent control",[1],inactive: -0.0411% and inactive: 0.0291%
same,"fluorescence, % of Rose Bengal",[2],inactive: -0.0006% and inactive: -0.0481%
same,"fluorescence, % of fluorescent control",[3],inactive: -0.102% and inactive: -0.11%
same,"fluorescence, % of fluorescein control",[4],inactive: 0.0386% and inactive: 0.038%
same,"fluorescence, % of fluorescent control",[5],inactive: 0.0056% and inactive: 0.0241%
same,Potency,[8],active: 61.6 nM and active: 5.4 nM
same,activity change,[11]; at 70.3 µM (top of the series),inactive: -12%
same,activity change,[11]; at 95 µM (top of the series),inactive: -11.5%
same,Potency,[13],active: 1.55 µM and active: 154 nM
O=P(Cl)(Oc1ccccc1)Oc1ccccc1,"fluorescence, % of fluorescent control",[1],inactive: 0.0186%
same,"fluorescence, % of Rose Bengal",[2],inactive: -0.316%
same,"fluorescence, % of fluorescent control",[3],inactive: 0.323%
same,"fluorescence, % of fluorescein control",[4],inactive: -0.0023%
same,"fluorescence, % of fluorescent control",[5],inactive: -0.0162%
same,activation,[6],inactive: 0.0192%
same,Potency,[8],inactive
same,Potency,[13],inactive
same,Potency,[15],inactive
same,Potency,[20],inactive
same,Potency,[16],inactive
same,Potency,[17],inactive
same,"activity change, negative = inhibition",[18],inactive: 8.43%
same,Potency,[19],inactive
O=[As]c1ccccc1 (configuration not stated),"fluorescence, % of fluorescent control",[1],inactive: -0.232%
same,"fluorescence, % of Rose Bengal",[2],inactive: 0.0046%
same,"fluorescence, % of fluorescent control",[3],inactive: 0.0188%
same,"fluorescence, % of fluorescein control",[4],inactive: -0.174%
same,"fluorescence, % of fluorescent control",[5],inactive: -0.178%
same,Potency,[9],active: 347 nM
same,activity change,[11]; at 70.3 µM (top of the series),inactive: -11.1%
same,Potency,[12],active: 306 nM
same,Potency,[13],active: 109 nM
same,Potency,[15],active: 3090 nM [inconclusive]
same,Potency,[20],active: 4900 nM
same,Potency,[16],active: 4360 nM [inconclusive]
CCCCCCCCCCCCCC[P+](CCCCCC)(CCCCCC)CCCCCC,"fluorescence, % of fluorescent control",[1],inactive: 0.0294%
same,"fluorescence, % of Rose Bengal",[2],inactive: -0.101%
same,"fluorescence, % of fluorescent control",[3],inactive: -0.0607%
same,"fluorescence, % of fluorescein control",[4],inactive: -0.0931%
same,"fluorescence, % of fluorescent control",[5],inactive: -0.0302%
same,activation,[14],inactive: -8.34%
same,Potency,[15],active: 615 nM [inconclusive]
O=C(OC1CN2CCC1CC2)c1ccccc1 (configuration not stated),"fluorescence, % of fluorescent control",[1],inactive: -0.554% [at 46 µM]
same,"fluorescence, % of Rose Bengal",[2],inactive: -0.0942% [at 46 µM]
same,"fluorescence, % of fluorescent control",[3],inactive: 0.0533% [at 46 µM]
same,"fluorescence, % of fluorescein control",[4],inactive: 0.0275% [at 46 µM]
same,"fluorescence, % of fluorescent control",[5],inactive: 0.0018% [at 46 µM]
same,Potency,[8],inactive
same,Potency,[9],inactive
same,activation,[10],inactive: 0.0004%
same,activity change,[11]; at 70.3 µM (top of the series),inactive: 0.173%
same,Potency,[12],inactive
same,Potency,[13],inactive
same,activation,[14],inactive: -0.0622%
same,Potency,[15],inactive
same,Potency,[20],inactive
same,Potency,[16],inactive
same,Potency,[17],inactive
same,"activity change, negative = inhibition",[18],inactive: 5.5%
same,Potency,[19],inactive
CCCCO[P+](=O)OCCCC,"fluorescence, % of fluorescent control",[1],inactive: 0.511% and inactive: 0.0049%
same,"fluorescence, % of Rose Bengal",[2],inactive: -0.636% and inactive: -0.0014%
same,"fluorescence, % of fluorescent control",[3],inactive: -0.148% and inactive: -0.157%
same,"fluorescence, % of fluorescein control",[4],inactive: 0.0263% and inactive: -0.0058%
same,"fluorescence, % of fluorescent control",[5],inactive: 0.0461% and inactive: -0.0662%
same,Potency,[8],inactive
same,Potency,[9],inactive
same,activation,[10],inactive: 4.2% and inactive: -0.0786%
same,activity change,[11]; at 70.3 µM (top of the series),inactive: -1.27% and inactive: -1.2%
same,Potency,[12],inactive
same,Potency,[13],inactive
same,activation,[14],inactive: 0.352% and inactive: 0.0117%
same,Potency,[15],inactive
same,Potency,[20],inactive
same,Potency,[16],inactive
same,Potency,[17],inactive
same,"activity change, negative = inhibition",[18],inactive: -1.39% and inactive: 3.76%
same,Potency,[19],inactive
